In test [1] the target is T1, full-length B-Catenin (Uniprot ID P35222) (Homo sapiens, UniProt P35222).
T1 construct: 10 nM full-length B-Catenin (Uniprot ID P35222)
The test can be described thus: biochemical. The format is binding. As to conditions: beta-Catenin FP IC50 (nM), competition fluorescence polarization. A general note: In fluorescence polarisation assays a small probe gives low polarisation when free and higher when bound to something large.

Sequences of proteins named here, by UniProt entry; tags and fusion partners are left off.
UniProt P35222, whole entry: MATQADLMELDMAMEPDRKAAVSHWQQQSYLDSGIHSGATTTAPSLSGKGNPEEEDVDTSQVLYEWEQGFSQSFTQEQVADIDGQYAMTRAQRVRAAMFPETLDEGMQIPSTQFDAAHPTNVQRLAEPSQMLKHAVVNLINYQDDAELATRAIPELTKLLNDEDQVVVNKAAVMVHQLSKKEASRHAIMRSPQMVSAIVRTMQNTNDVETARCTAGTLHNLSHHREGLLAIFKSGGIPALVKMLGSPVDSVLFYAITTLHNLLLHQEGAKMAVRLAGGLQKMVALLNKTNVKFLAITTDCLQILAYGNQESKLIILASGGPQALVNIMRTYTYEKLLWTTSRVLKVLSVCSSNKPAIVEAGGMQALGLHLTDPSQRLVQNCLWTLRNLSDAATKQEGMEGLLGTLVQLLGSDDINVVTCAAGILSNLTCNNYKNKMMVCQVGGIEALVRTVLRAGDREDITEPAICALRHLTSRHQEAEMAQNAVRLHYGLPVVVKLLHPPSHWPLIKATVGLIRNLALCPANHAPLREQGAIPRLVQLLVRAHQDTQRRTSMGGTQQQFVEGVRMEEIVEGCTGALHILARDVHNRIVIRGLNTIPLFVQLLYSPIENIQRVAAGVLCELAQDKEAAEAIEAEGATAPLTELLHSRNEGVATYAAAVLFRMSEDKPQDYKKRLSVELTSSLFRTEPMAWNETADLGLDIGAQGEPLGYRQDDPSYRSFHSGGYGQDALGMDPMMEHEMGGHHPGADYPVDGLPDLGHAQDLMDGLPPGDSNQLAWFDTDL

Test [2] addresses beta-catenin/TCF4 interaction (Homo sapiens, UniProt P35222). The test can be described thus: cell-based. Also on record: host or cells: HEK293. The settings on record: NanoBRET Abs IC50 (uM). Background: In BRET a luciferase serves as donor, and the signal depends on an acceptor being close.

The values that follow come from patent publication US20240360179A1, “STAPLED PEPTIDES AND METHODS THEREOF” (FOG PHARMACEUTICALS, INC., priority 2021, published 2024).

A value given as a limit tells only on which side of the number the result lay.

In general, IC50 refers to the concentration needed to halve the response being measured. Read a high IC50 as a need for much substance. Consider `CC(=O)N1CCC[C@]12CC=CCCCC1(CCCC=CCCCOC(=O)N3CC[C@@]4(C3)NC(=O)[C@H](CCCCN(C(C)C)C(=O)CC[C@@H](C(=O)N[C@@H](C)C(N)=O)NC(=O)[C@H](Cc3csc5ccccc35)NC(=O)[C@H](Cc3ccccc3C(F)(F)F)NC4=O)NC(=O)[C@H](Cc3ccccc3)NC(=O)[C@H](C)NC(=O)[C@H](C)NC(=O)[C@H](Cc3cccc(C(=O)O)c3)NC(=O)[C@H](CC(=O)O)NC1=O)NC(=O)[C@H](CC(C)(C)C)NC(=O)[C@H](CC(=O)O)NC2=O` (relative stereo) [I-191, Ac-PL3-Asp-Npg-B5-Asp-3COOHF-Ala-Ala-Phe-iPrLys*3-PyrS2-2F3MeF-BztA-GlnR*3-Ala-NH2], for which the IC50 fell in the range of 50 to 200 nM in test [1] and 3 to 10 µM in test [2].
In the case of `CC(=O)N1CCC[C@]12CC=CCCCC1(CCCC=CCCCOC(=O)N3CC[C@@]4(C3)NC(=O)[C@H](CCCCNC(=O)CC[C@@H](C(=O)N[C@@H](C)C(N)=O)NC(=O)[C@H](Cc3csc5ccccc35)NC(=O)[C@H](Cc3ccccc3C(F)(F)F)NC4=O)NC(=O)[C@H](Cc3ccccc3)NC(=O)[C@H](C)NC(=O)C(C)(C)NC(=O)[C@H](Cc3ccc(C(=O)O)cc3)NC(=O)[C@H](CC(=O)O)NC1=O)NC(=O)[C@H](CC(C)(C)C)NC(=O)[C@H](CC(=O)O)NC2=O` (relative stereo) [I-196, Ac-PL3-Asp-Npg-B5-Asp-4COOHF-Aib-Ala-Phe-Lys*3-PyrS2-2F3MeF-BztA-GlnR*3-Ala-NH2], the IC50 was 50 to 200 nM in test [1] and 3 to 10 µM in test [2].
For `CC(=O)N1CCC[C@]12CC=CCCCC1(CCCC=CCCCOC(=O)N3CC[C@@]4(C3)NC(=O)[C@H](CCCCNC(=O)CC[C@@H](C(=O)N[C@@H](C)C(N)=O)NC(=O)[C@H](Cc3csc5ccccc35)NC(=O)[C@H](Cc3ccccc3C(F)(F)F)NC4=O)NC(=O)[C@H](Cc3ccccc3)NC(=O)[C@H](C)NC(=O)C(C)(C)NC(=O)[C@H](Cc3ccccc3C(=O)O)NC(=O)[C@H](CC(=O)O)NC1=O)NC(=O)[C@H](CC(C)(C)C)NC(=O)[C@H](CC(=O)O)NC2=O` (relative stereo) [I-197, Ac-PL3-Asp-Npg-B5-Asp-2COOHF-Aib-Ala-Phe-Lys*3-PyrS2-2F3MeF-BztA-GlnR*3-Ala-NH2], in that order: < 50 nM and 1.5 to 3 µM.
As for `CC(=O)N1CCC[C@]12CC=CCCCC1(CCCC=CCCCOC(=O)N3CC[C@@]4(C3)NC(=O)[C@H](CCCCNC(=O)CC[C@@H](C(=O)N[C@@H](C)C(N)=O)NC(=O)[C@H](Cc3csc5ccccc35)NC(=O)[C@H](Cc3ccccc3C(F)(F)F)NC4=O)NC(=O)[C@H](Cc3ccccc3)NC(=O)[C@H](C)NC(=O)C(C)(C)NC(=O)[C@H](CCC(=O)O)NC(=O)[C@H](CC(=O)O)NC1=O)NC(=O)[C@H](CC(C)(C)C)NC(=O)[C@H](CC(=O)O)NC2=O` (relative stereo) [I-198, Ac-PL3-Asp-Npg-B5-Asp-Glu-Aib-Ala-Phe-Lys*3-PyrS2-2F3MeF-BztA-GlnR*3-Ala-NH2], the IC50 in test [1] is < 50 nM; in test [2] it was 3 to 10 µM.
Consider `CC(=O)N1CCC[C@]12CC=CCCCC1(CCCC=CCCCOC(=O)N3CC[C@@]4(C3)NC(=O)[C@H](CCCCNC(=O)CC[C@@H](C(=O)N[C@@H](C)C(N)=O)NC(=O)[C@H](Cc3csc5ccccc35)NC(=O)[C@H](Cc3ccccc3C(F)(F)F)NC4=O)NC(=O)[C@H](Cc3ccccc3)NC(=O)[C@H](C)NC(=O)C(C)(C)NC(=O)[C@H](CC(=O)O)NC(=O)[C@H](CC(=O)O)NC1=O)NC(=O)[C@H](CC(C)(C)C)NC(=O)[C@H](CC(=O)O)NC2=O` (relative stereo) [I-199, Ac-PL3-Asp-Npg-B5-Asp-Asp-Aib-Ala-Phe-Lys*3-PyrS2-2F3MeF-BztA-GlnR*3-Ala-NH2], for which the IC50 was < 50 nM in test [1] and 3 to 10 µM in test [2].
Regarding `CC(=O)N1CCC[C@]12CC=CCCCC1(CCCC=CCCCOC(=O)N3CC[C@@]4(C3)NC(=O)[C@H](CCCCNC(=O)CC[C@@H](C(=O)N[C@@H](C)C(N)=O)NC(=O)[C@H](Cc3csc5ccccc35)NC(=O)[C@H](Cc3ccccc3C(F)(F)F)NC4=O)NC(=O)[C@H](Cc3ccccc3)NC(=O)[C@H](C)NC(=O)C(C)(C)NC(=O)[C@H]([C@@H](C)O)NC(=O)[C@H](CC(=O)O)NC1=O)NC(=O)[C@H](CC(C)(C)C)NC(=O)[C@H](CC(=O)O)NC2=O` (relative stereo) [I-200, Ac-PL3-Asp-Npg-B5-Asp-Thr-Aib-Ala-Phe-Lys*3-PyrS2-2F3MeF-BztA-GlnR*3-Ala-NH2], the IC50 in test [1] was 50 to 200 nM; in test [2], > 10 µM.
The matching figures for `CC(=O)N1CCC[C@]12CC=CCCCC1(CCCC=CCCCOC(=O)N3CC[C@@]4(C3)NC(=O)[C@H](CCCCNC(=O)CC[C@@H](C(=O)N[C@@H](C)C(N)=O)NC(=O)[C@H](Cc3csc5ccccc35)NC(=O)[C@H](Cc3ccccc3C(F)(F)F)NC4=O)NC(=O)[C@H](Cc3ccccc3)NC(=O)[C@H](C)NC(=O)C(C)(C)NC(=O)[C@H](CCC(N)=O)NC(=O)[C@H](CC(=O)O)NC1=O)NC(=O)[C@H](CC(C)(C)C)NC(=O)[C@H](CC(=O)O)NC2=O` (relative stereo) [I-201, Ac-PL3-Asp-Npg-B5-Asp-Gln-Aib-Ala-Phe-Lys*3-PyrS2-2F3MeF-BztA-GlnR*3-Ala-NH2]: 50 to 200 nM and 3 to 10 µM.
For `CC(=O)N1CCC[C@]12CC=CCCCC1(CCCC=CCCCOC(=O)N3CC[C@@]4(C3)NC(=O)[C@H](CCCCNC(=O)CC[C@@H](C(=O)N[C@@H](C)C(N)=O)NC(=O)[C@H](Cc3csc5ccccc35)NC(=O)[C@H](Cc3ccccc3C(F)(F)F)NC4=O)NC(=O)[C@H](Cc3ccccc3)NC(=O)[C@H](C)NC(=O)C(C)(C)NC(=O)[C@H](Cc3c[nH]cn3)NC(=O)[C@H](CC(=O)O)NC1=O)NC(=O)[C@H](CC(C)(C)C)NC(=O)[C@H](CC(=O)O)NC2=O` (relative stereo) [I-202, Ac-PL3-Asp-Npg-B5-Asp-His-Aib-Ala-Phe-Lys*3-PyrS2-2F3MeF-BztA-GlnR*3-Ala-NH2], in that order: < 50 nM and > 10 µM.
For `CC(=O)N1CCC[C@]12CC=CCCCC1(CCCC=CCCCOC(=O)N3CC[C@@]4(C3)NC(=O)[C@H](CCCCNC(=O)CC[C@@H](C(=O)N[C@@H](C)C(N)=O)NC(=O)[C@H](Cc3csc5ccccc35)NC(=O)[C@H](Cc3ccccc3C(F)(F)F)NC4=O)NC(=O)[C@H](Cc3ccccc3)NC(=O)[C@H](C)NC(=O)C(C)(C)NC(=O)[C@H](Cc3ccc(O)cc3)NC(=O)[C@H](CC(=O)O)NC1=O)NC(=O)[C@H](CC(C)(C)C)NC(=O)[C@H](CC(=O)O)NC2=O` (relative stereo) [I-203, Ac-PL3-Asp-Npg-B5-Asp-Tyr-Aib-Ala-Phe-Lys*3-PyrS2-2F3MeF-BztA-GlnR*3-Ala-NH2], in that order: > 1000 nM and > 10 µM.
Regarding `CC(=O)N1CCC[C@]12CC=CCCCC1(CCCC=CCCCOC(=O)N3CC[C@@]4(C3)NC(=O)[C@H](CCCCNC(=O)CC[C@@H](C(=O)N[C@@H](C)C(N)=O)NC(=O)[C@H](Cc3csc5ccccc35)NC(=O)[C@H](Cc3ccccc3C(F)(F)F)NC4=O)NC(=O)[C@H](Cc3ccccc3)NC(=O)[C@H](C)NC(=O)C(C)(C)NC(=O)[C@H](Cc3cc(C(F)(F)F)ccc3C(=O)O)NC(=O)[C@H](CC(=O)O)NC1=O)NC(=O)[C@H](CC(C)(C)C)NC(=O)[C@H](CC(=O)O)NC2=O` (relative stereo) [I-204, Ac-PL3-Asp-Npg-B5-Asp-5F3Me2COOHF-Aib-Ala-Phe-Lys*3-PyrS2-2F3MeF-BztA-GlnR*3-Ala-NH2], the IC50 in test [1] is < 50 nM; in test [2], 3 to 10 µM.
